Experimental data: PMC3093628, “Screening the methanol extracts of some Iranian plants for acetylcholinesterase inhibitory activity” (Research in Pharmaceutical Sciences, 2009)

By UniProt entry, the sequences of proteins in these tests, tags left out. Residues count along the entry.
UniProt O42275, 24-633: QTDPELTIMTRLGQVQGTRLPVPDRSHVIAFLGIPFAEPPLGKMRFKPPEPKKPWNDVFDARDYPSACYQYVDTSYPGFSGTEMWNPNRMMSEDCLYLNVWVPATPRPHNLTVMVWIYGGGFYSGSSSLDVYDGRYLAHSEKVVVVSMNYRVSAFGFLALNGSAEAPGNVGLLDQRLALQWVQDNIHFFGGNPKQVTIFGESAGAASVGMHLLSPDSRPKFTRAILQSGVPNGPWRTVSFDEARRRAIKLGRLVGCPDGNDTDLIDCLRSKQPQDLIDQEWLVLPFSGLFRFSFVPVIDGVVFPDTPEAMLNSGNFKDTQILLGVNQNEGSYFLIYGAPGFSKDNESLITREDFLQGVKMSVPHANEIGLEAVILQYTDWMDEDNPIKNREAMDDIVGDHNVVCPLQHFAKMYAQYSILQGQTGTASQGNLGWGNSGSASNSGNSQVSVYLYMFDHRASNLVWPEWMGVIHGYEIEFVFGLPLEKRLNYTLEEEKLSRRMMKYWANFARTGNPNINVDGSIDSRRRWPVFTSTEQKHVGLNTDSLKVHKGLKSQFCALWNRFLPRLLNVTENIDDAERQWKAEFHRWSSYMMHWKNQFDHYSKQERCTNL

Target: T1, Electric eel acetylcholinesterase (AChE) (Electrophorus electricus, UniProt O42275)
T1 construct: commercial enzyme from Sigma (USA); no further details printed
Assay: Ellman colorimetric assay with acetylthiocholine iodide and DTNB, […] nm
Assay type: biochemical
Details: read-out: IC50 value (mg/ml) (converted)

`CNC(=O)Oc1ccc2c(c1)[C@]1(C)CCN(C)[C@@H]1N2C` [Eserine] was tested, and the IC50 was 2910 µM.
